The values below come from patent US8394809B2, “Phenoxy-substituted pyrimidines as opioid receptor modulators” (priority 2009, dated 2013).

Amino acid sequences for entries named in this document (tags omitted).
UniProt P33535, whole entry: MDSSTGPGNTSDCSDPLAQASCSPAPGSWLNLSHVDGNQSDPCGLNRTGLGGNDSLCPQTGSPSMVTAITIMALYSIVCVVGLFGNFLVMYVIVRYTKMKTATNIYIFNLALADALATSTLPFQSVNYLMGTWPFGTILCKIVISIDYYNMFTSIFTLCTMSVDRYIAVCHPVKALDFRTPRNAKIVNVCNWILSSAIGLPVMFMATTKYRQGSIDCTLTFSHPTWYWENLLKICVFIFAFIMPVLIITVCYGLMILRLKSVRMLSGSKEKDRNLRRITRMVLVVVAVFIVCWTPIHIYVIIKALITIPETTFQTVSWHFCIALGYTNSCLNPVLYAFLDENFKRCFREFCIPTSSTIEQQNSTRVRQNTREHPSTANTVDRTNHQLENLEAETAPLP
UniProt P33533, whole entry: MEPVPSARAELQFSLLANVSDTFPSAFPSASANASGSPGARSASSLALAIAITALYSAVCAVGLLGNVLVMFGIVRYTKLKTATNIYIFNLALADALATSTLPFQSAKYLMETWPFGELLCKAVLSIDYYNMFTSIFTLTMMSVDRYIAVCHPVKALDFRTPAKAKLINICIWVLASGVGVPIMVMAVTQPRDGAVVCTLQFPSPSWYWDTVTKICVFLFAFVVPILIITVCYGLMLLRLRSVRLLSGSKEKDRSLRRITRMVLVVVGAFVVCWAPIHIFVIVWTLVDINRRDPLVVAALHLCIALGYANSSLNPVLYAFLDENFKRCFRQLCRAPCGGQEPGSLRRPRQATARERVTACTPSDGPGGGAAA

Where only a bound is given, the exact number is not on record here.

The target of one assay is mu opioid receptor (Rattus norvegicus, UniProt P33535). Kind of assay: Rat brain mu opioid receptor binding assay. The note with it: read-out: μ-binding Ki; rat forebrain membranes, ~0.8 nM [3H]DAMGO.
In another assay the target is delta opioid receptor (Rattus norvegicus, UniProt P33533). Kind of assay: Rat brain delta opioid receptor binding assay. The following applies: read-out: δ-binding (Naltrindole ligand) Ki; rat forebrain membranes, 0.25 nM [3H]naltrindole.

As to `Brc1ccccc1Oc1ncc(NC[C@@H]2CCCN2)c(Oc2ccccc2Br)n1`, the Ki at mu opioid receptor stood at 8780 nM; on delta opioid receptor, 885 nM.

`COc1ccc(Oc2ncc(NC3CCN(CCc4ccccc4)CC3)c(Oc3ccc(OC)cc3)n2)cc1`: the inhibitory constant (Ki) at mu opioid receptor was 163000 nM; at delta opioid receptor, 1870 nM.

`COc1ccc(Oc2ncc(NC3CN4CCC3CC4)c(Oc3ccc(OC)cc3)n2)cc1` (stereo not drawn): the inhibition constant Ki at mu opioid receptor was above 10000 nM; at delta opioid receptor, 254 nM.
